According to PubChem BioAssay AID602332 (National Center for Advancing Translational Sciences (NCATS), 2012):
Only a part is listed here, and it is no random draw. Some salts or complexes appear as unconnected parts, following the source record. The source made the active and inactive calls. Calls follow the shape of the dose curve; as a rule, active = well fitted activation curve with a large enough effect; inconclusive = small, poorly fitted or top-dose-only effect; inactive = no such curve, though single readings can be large or run the other way.

Assay: qHTS for Inducers of the Endoplasmic Reticulum Stress Response (ERSR) in Human Glioma: qHTS; also: % of control where 0% means no effect; nearly all actives have a fitted effect of over 35% in size
Conditions: U87-MG GRP78 promoter luciferase reporter, 16 h; hits give high values

Structure (SMILES)	activation
O=c1[nH]c2ccccc2n1C1CCN(C(c2ccccc2)c2nnnn2C2CCCCC2)CC1 (stereo unspecified)	inactive: -3.91%
O=c1[nH]c2ccccc2n1C1CCN(C(c2cccc3ccccc23)c2nnnn2C2CCCC2)CC1 (stereo unspecified)	inactive: -2.51%
CCOC(=O)N1CCC(Nc2cccc(C)c2)CC1	inactive: -0.0685%
COc1cc(C(=O)NCC2(N(C)C)CCCCC2)ccc1OC(F)F	inactive: -9.8%
CCOc1ccc(C)cc1CN(CCCl)CCCl	inactive: -0.35%
O=C1CCN(Cc2ccccc2)CC1	inactive: -2.13%
O=C(NCC1(N2CCOCC2)CCCCC1)c1ccc(Cl)cc1	inactive: -5.03%
CC(C)(C)n1nnnc1C(c1ccccc1)N1CCC(n2c(=O)[nH]c3ccccc32)CC1 (stereo unspecified)	inactive: -2.71%
CCOC(=O)N1CCC(Nc2ccc(F)cc2)CC1	inactive: -2.85%
COc1ccc(NC2CCN(CCc3ccccc3)CC2)c(OC)c1	inactive: -3.37%
CCCCOc1ccc(C(=O)NCC2(N3CCOCC3)CCCCC2)cc1	inactive: -1.92%
CCCCn1nnnc1C(c1cc2ccccc2o1)N1CCC(n2c(=O)[nH]c3ccccc32)CC1 (stereo unspecified)	inactive: -9.1%
O=P1(N(CCCl)CCCl)SCCCS1	inactive: -2.87%
O=C(NCC1(N2CCCCC2)CCCCC1)c1ccc(F)cc1	inactive: -0.995%
COc1ccccc1C(=O)NCC1(N2CCOCC2)CCCCC1	inactive: -2.55%
O=C(NCC1(N2CCOCC2)CCCCC1)c1cc2ccccc2o1	inactive: -0.188%
Cc1cc(C)cc(N(C(=O)c2ccccc2)C2CCN(C(=O)OC(C)(C)C)CC2)c1	inactive: -3.25%
O=C(NCC1(N2CCCCC2)CCCCC1)c1ccc(Cl)nc1	inactive: -0.912%
O=c1[nH]c2ccccc2n1C1CCN(C(c2ccccc2OC(F)(F)F)c2nnnn2C2CCCCC2)CC1 (stereo unspecified)	inactive: -3.99%
CCCCn1nnnc1C(c1ccc(OC)cc1)N1CCC(n2c(=O)[nH]c3ccccc32)CC1 (stereo unspecified)	inactive: -1.69%
CCOC(=O)N1CCC(Nc2ccc(OC)cc2)CC1	inactive: 0.542%
COc1ccc(Cl)cc1C(=O)NCC1(N2CCOCC2)CCCCC1	inactive: -3.31%
O=C1C(O)=C([N+](=O)[O-])C(=O)C(O)=C1[N+](=O)[O-]	inactive: -5.27%

Structure (SMILES)	activation
O=C(NCC1(N2CCCCC2)CCCCC1)c1ccc(Cl)s1	inactive: -3.72%
N#CC1(Nc2ccccc2)CCN(Cc2ccccc2)CC1	inactive: -3.65%
O=c1[nH]c2ccccc2n1C1CCN(C(c2cc3ccccc3o2)c2nnnn2C2CCCCC2)CC1 (stereo unspecified)	inactive: -3.83%
O=C(OC1CN2CCC1CC2)C1c2ccccc2Oc2ccccc21 (stereo unspecified)	inactive: -1.17%
O=C(NCC1(N2CCCCC2)CCCCC1)c1cccs1	inactive: -5.15%
CCCCn1nnnc1C(CC)N1CCC(n2c(=O)[nH]c3ccccc32)CC1 (stereo unspecified)	inactive: -3.68%
CCCCn1nnnc1C(c1cccs1)N1CCC(n2c(=O)[nH]c3ccccc32)CC1 (stereo unspecified)	inactive: -2.13%
O=C(NCC1(N2CCCCC2)CCCCC1)c1ccc(=O)[nH]c1	inactive: -3.42%
CC(C)(C)OC(=O)N1CCC(N(C(=O)c2ccccc2)c2ccc(F)cc2)CC1	inactive: -2.76%
COc1ccc(C(=O)NCC2(N3CCCCC3)CCCCC2)c(OC)c1OC	inactive: -3.51%
CCC(c1nnnn1C1CCCC1)N1CCC(n2c(=O)[nH]c3ccccc32)CC1 (stereo unspecified)	inactive: -2.73%
COc1ccc(C(=O)NCC2(N3CCCCC3)CCCCC2)cc1	inactive: -2.47%
Cc1cccc(NC2(C#N)CCN(Cc3ccccc3)CC2)c1	inactive: -3.52%
CSc1ccccc1C(=O)NCC1(N2CCCCC2)CCCCC1	inactive: -4.43%
CN1CCC(Nc2cccc(F)c2)CC1	inactive: -2.12%
COc1ccc2c(c1O)-c1c(O)c(OC)cc3c1[C@H](C2)[N+](C)(C)CC3.O=[N+]([O-])c1cc([N+](=O)[O-])c([O-])c([N+](=O)[O-])c1[O-]	inactive: -1.7%
O=C(NCC1(N2CCCCC2)CCCCC1)c1cncc(Br)c1	inactive: -1.01%
O=C(OC1CN2CCC1CC2)c1ccc([N+](=O)[O-])cc1 (stereo unspecified)	inactive: -0.912%
O=C(NCC1(N2CCOCC2)CCCCC1)c1ccccc1Br	inactive: 0.591%
CCCOc1ccc(C(=O)NCC2(N(C)C)CCCCC2)cc1OC	inactive: -0.136%
CCCCOc1ccccc1C(=O)NCC1(N2CCOCC2)CCCCC1	inactive: -3.75%
Cc1ccc(C(=O)NCC2(N(C)C)CCCCC2)o1	inactive: -2.53%
COc1ccc(C(c2nnnn2C2CCCC2)N2CCC(n3c(=O)[nH]c4ccccc43)CC2)cc1 (stereo unspecified)	inactive: -2.65%

Structure (SMILES)	activation
O=[N+]([O-])c1cc([N+](=O)[O-])c(Nc2ccc(Cl)cc2)c([N+](=O)[O-])c1	inactive: -9.94%
CN(C)c1cccc(C(=O)NCC2(N3CCCCC3)CCCCC2)c1	inactive: -2.88%
O=[N+]([O-])c1cc([N+](=O)[O-])c(OC2CCCCC2O)c([N+](=O)[O-])c1 (stereo unspecified)	inactive: -3.67%
COc1ccc(CN(CCCl)CCCl)cc1Cl	inactive: -4.14%
CCCCn1nnnc1C(c1ccccc1OC(F)(F)F)N1CCC(n2c(=O)[nH]c3ccccc32)CC1 (stereo unspecified)	inactive: -6.99%
CC(C)c1ccc(NC2CCN(C(=O)OC(C)(C)C)CC2)cc1	inactive: 7.1%
CCCCn1nnnc1C(c1ccnc2ccccc12)N1CCC(n2c(=O)[nH]c3ccccc32)CC1 (stereo unspecified)	inactive: -2.98%
O=C(NCC1(N2CCOCC2)CCCCC1)c1cc(F)c(F)cc1Cl	inactive: -2.6%
CCC(c1nnnn1C(C)(C)C)N1CCC(n2c(=O)[nH]c3ccccc32)CC1 (stereo unspecified)	inactive: -3.26%
COc1cc(OC)c(C(=O)NCC2(N(C)C)CCCCC2)cc1OC	inactive: 2.04%
O=C(NCC1(N2CCCCC2)CCCCC1)c1cccc(C(F)(F)F)c1	inactive: -3.65%
CCCOc1cccc(C(=O)NCC2(N3CCOCC3)CCCCC2)c1	inactive: -5.15%
O=[N+]([O-])c1cc([N+](=O)[O-])c(NCC2CCS(=O)(=O)C2)c([N+](=O)[O-])c1 (stereo unspecified)	inactive: -7.84%
CC(C)c1ccc(C(=O)NCC2(N3CCOCC3)CCCCC2)cc1	inactive: -1.28%
COc1ccc(NC2CCN(C(=O)OC(C)(C)C)CC2)cc1	inactive: 3.91%
CN1CCN(CCOC(=O)C(O)(c2ccccc2)c2ccccc2)CC1	inactive: -0.987%
CCCCn1nnnc1C(c1cccc2ccccc12)N1CCC(n2c(=O)[nH]c3ccccc32)CC1 (stereo unspecified)	inactive: 0.299%
O=C(NCC1(N2CCOCC2)CCCCC1)c1cc(=O)[nH]c2ccccc12	inactive: 4.91%
COc1cc(C(=O)NCC2(N3CCCCC3)CCCCC2)ccc1OC(F)F	inactive: -4.55%
O=C(NCC1(N2CCCCC2)CCCCC1)c1ccc(OC(F)F)cc1	inactive: -2.99%
CC(C)(C)n1nnnc1C(c1ccccc1OC(F)(F)F)N1CCC(n2c(=O)[nH]c3ccccc32)CC1 (stereo unspecified)	inactive: -5.52%
O=C(NCC1(N2CCCCC2)CCCCC1)c1cccc([N+](=O)[O-])c1	inactive: -3.79%
CCOc1ccc(C(=O)NCC2(N3CCOCC3)CCCCC2)cc1	inactive: -0.851%

Structure (SMILES)	activation
CSc1ccc(C(=O)NCC2(N3CCOCC3)CCCCC2)cc1	inactive: -4.45%
O=c1[nH]c2ccccc2n1C1CCN(C(c2ccccc2OC(F)(F)F)c2nnnn2C2CCCC2)CC1 (stereo unspecified)	inactive: -3.97%
N#CC1(Nc2ccccc2)CCN(CCc2ccccc2)CC1	inactive: 2.47%
CCN1CCC(Nc2ccc(Cl)cc2)CC1	inactive: -2.8%
O=C(NCC1(N2CCOCC2)CCCCC1)c1ccccc1	inactive: -2.22%
Cc1cc(N(CCCl)CCCl)ccc1C=O	inactive: -5.04%
CCCN1CCC(Nc2cc(OC)cc(OC)c2)CC1	inactive: -9.01%
O=c1[nH]c2ccccc2n1C1CCN(C(c2ccccc2)c2nnnn2C2CCCC2)CC1 (stereo unspecified)	inactive: -1.45%
c1ccc(CN2CCC(Nc3ccccc3)CC2)cc1	inactive: 0.278%
CN(C)C1(CNC(=O)c2cccc(C#N)c2)CCCCC1	inactive: 2.27%
CC(C)(C)n1nnnc1C(c1cccc2ccccc12)N1CCC(n2c(=O)[nH]c3ccccc32)CC1 (stereo unspecified)	inactive: -5.48%
CC(C)(C)OC(=O)N1CCC(N(C(=O)c2ccccc2)c2ccc(Cl)cc2)CC1	inactive: -2.34%
O=C(NCC1(N2CCOCC2)CCCCC1)c1ccc([N+](=O)[O-])cc1	inactive: -0.216%
O=C(NCC1(N2CCOCC2)CCCCC1)c1ccccc1[N+](=O)[O-]	inactive: -3.36%
N#Cc1ccc(C(=O)NCC2(N3CCCCC3)CCCCC2)cc1	inactive: -4.59%
CCOC(=O)C(CC)C1=NC(C)(C)Cc2ccccc21.O=[N+]([O-])c1cc([N+](=O)[O-])c(O)c([N+](=O)[O-])c1 (stereo unspecified)	inactive: 3.09%
N/C(=N\O)c1c(N)no[n+]1[O-]	inactive: -5.62%
CCOC(=O)N1CCC(Nc2ccc(C)cc2)CC1	inactive: -0.0177%
COc1cccc(C(c2nnnn2C(C)(C)C)N2CCC(n3c(=O)[nH]c4ccccc43)CC2)c1OC (stereo unspecified)	inactive: -3.07%
CCCCn1nnnc1C(c1cccc(OC)c1OC)N1CCC(n2c(=O)[nH]c3ccccc32)CC1 (stereo unspecified)	inactive: -3.69%
O=c1[nH]c2ccccc2n1C1CCN(C(c2cccs2)c2nnnn2C2CCCC2)CC1 (stereo unspecified)	inactive: 0.395%
O=C(O)c1cccc(Nc2c([N+](=O)[O-])cc([N+](=O)[O-])cc2[N+](=O)[O-])c1	inactive: -6.98%
